Reference: patent US9522194B2, “Methods of using monomethylvaline compositions having phenylalanine carboxy modifications at the C-terminus” (priority 2005, dated 2016)

Legend:
Test in all cases: In vitro cytotoxicity of free drugs (resazurin, 96 h)
[1] = tested on: Hodgkin's disease cell line L428; type: cell-based; details: read-out: IC50s (nM) L428, free drug
[2] = tested on: Hodgkin's disease cell line L540cy; type: cell-based; details: read-out: IC50s (nM) L540cy, free drug
[3] = tested on: colon carcinoma cell line HCT-116; type: cell-based; details: read-out: IC50s (nM) HCT-116, free drug
[4] = tested on: renal cell carcinoma cell line Caki-1; type: cell-based; details: read-out: IC50s (nM) Caki-1, free drug
[5] = tested on: renal cell carcinoma cell line 786-O; type: cell-based; details: read-out: IC50s (nM) 786-O, free drug
[6] = tested on: anaplastic large cell lymphoma cell line Karpas 299; type: cell-based, human; details: read-out: IC50s (nM) Karpas 299, free drug

Work on “CbzNMeValValDilDapphosphonoPhe diethylester” yielded an IC50 [1] of 1.26 nM, an IC50 [2] of 0.25 nM and an IC50 [3] of 0.085 nM. For the same substance, the IC50 [4] was 0.009 nM, the IC50 [5] was 1.1 nM and the IC50 [6] was 0.2 nM.
Work on NMeValValDilDapphosphonoPhe [MMApF-A] yielded an IC50 [1] of 237 nM, an IC50 [2] of 363 nM and an IC50 [6] of 790 nM.
NMeValValDilDapphosphonoPhe [MMApF-B] showed an IC50 [1] of 935 nM, an IC50 [2] of 363 nM and an IC50 [6] of 470 nM.
